In PubChem BioAssay AID485281 (National Center for Advancing Translational Sciences (NCATS), 2010):
Only a part is listed here, and it is no random draw. Results filed as inconclusive are left out. Activity calls are given as the source filed them. Calls come from the whole dose curve; as a rule, active = well fitted inhibition curve with a large enough effect; inconclusive = small, poorly fitted or top-dose-only effect; inactive = no such curve, though single readings can be large or run the other way.
% is set by controls: 0 for no effect and ±100 for the full control effect.
Note: nearly all actives have a fitted effect of over 20% in size.

By UniProt entry, the sequences of proteins in these tests, tags left out. Where a name states a change or a piece, a line headed by the entry shows the natural chain unless it says otherwise.
UniProt P02791: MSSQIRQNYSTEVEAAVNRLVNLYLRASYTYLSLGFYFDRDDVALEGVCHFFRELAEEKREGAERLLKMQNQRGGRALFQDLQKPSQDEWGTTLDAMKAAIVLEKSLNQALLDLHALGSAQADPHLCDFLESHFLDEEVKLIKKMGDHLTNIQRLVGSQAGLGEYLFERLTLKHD

These compounds were tested against Ferritin light chain (Equus caballus) (UniProt P02791) (assay: qHTS Assay for Identification of Novel General Anesthetics). Details: apoferritin/1-aminoanthracene competitive binding, fluorescence; at 77.5 µM (top of the series) unless noted.
For `Cc1cc(SC(NC(=O)c2ccccc2)C(Cl)(Cl)Cl)nc(C(C)C)n1` (configuration not stated), the activity change, negative = displacement was inactive: -15.2%. For `CCCCOc1ccc(C(=O)NCC2(N3CCCCC3)CCCCC2)cc1OC`, the activity change, negative = displacement was inactive: 3.69%. `CCOC(=O)Nc1ccc([As](=O)(O)O)c(O)c1` was tested, and the activity change, negative = displacement was inactive: 2.63%. For `Cc1cc(SC(NC=O)C(Cl)(Cl)Cl)ncn1` (configuration not stated), the activity change, negative = displacement was inactive: -5.09%. `O=P(Nc1ccccn1)(c1cccc2ccccc12)c1cccc2ccccc12` was tested, and the activity change, negative = displacement was inactive: -16.8%. In the case of `O=[N+]([O-])c1ccc(Nc2ccc(Oc3ccc([N+](=O)[O-])cc3[N+](=O)[O-])cc2)c([N+](=O)[O-])c1`, the activity change, negative = displacement is reported as inactive: -5.16%. With `CCOC(=O)Nc1cccc([As](=O)(O)O)c1` the activity change, negative = displacement was inactive: 23.3%. With `O=C(Nc1ccncc1[N+](=O)[O-])c1ccc([N+](=O)[O-])cc1[N+](=O)[O-]` the activity change, negative = displacement was inactive: -6.23%. With `O=C(COc1ccccc1)OC1CN2CCC1CC2` (configuration not stated) the activity change, negative = displacement was inactive: 1.74%. For `COP1(=S)c2c(C)nn(CCC#N)c2N=C(c2ccc(F)cc2)N1C` (configuration not stated), the activity change, negative = displacement was inactive: -1.68%. `CCC(C)N(CC(C)C)C(=S)SC(NC(C)=O)C(Cl)(Cl)Cl` (configuration not stated) was tested, and the activity change, negative = displacement was inactive: 2.46%. In the case of `O=C(OC1CN2CCC1CC2)c1cccc([N+](=O)[O-])c1` (configuration not stated), the activity change, negative = displacement is reported as inactive: 2.79%. With `CCOC(=O)c1ccc(NC(=O)C(C)(CCl)SC)cc1` (configuration not stated) the activity change, negative = displacement was inactive: 5.89%. For `COc1cc(I)ccc1[As](=O)(O)O`, the activity change, negative = displacement was inactive: -3%. `COc1ccc2nc(NP(=O)(c3ccccc3)c3ccccc3)sc2c1` was tested, and the activity change, negative = displacement was inactive: -1.94%. For `Cc1c2c(nc3ccccc13)SC(C(Cl)Cl)C2` (configuration not stated), the activity change, negative = displacement was inactive: -12.3%. In the case of `Cc1cc(=O)[nH]c(N[N+](=O)[O-])n1`, the activity change, negative = displacement is reported as inactive: -4.87%. For `O=C(OC1CN2CCC1CC2)C12CC3CC(CC(C3)C1)C2` (configuration not stated), the activity change, negative = displacement was inactive: -11.6%. With `COc1ccc(N/C(=N/P(=O)(N2CCOCC2)N2CCOCC2)N2CCOCC2)cc1` the activity change, negative = displacement was inactive: -1.45%. For `Cc1ccc(OP(=O)(Nc2ccc([N+](=O)[O-])cn2)Oc2ccc(C)cc2)cc1`, the activity change, negative = displacement was inactive: -3.33%. `Cc1ccc2nc3c(c(C)c2c1)CC(C(Cl)Cl)S3` (configuration not stated) was tested, and the activity change, negative = displacement was inactive: -2.86%. For `C[As](=O)(O)c1cccc(C(=O)O)c1`, the activity change, negative = displacement was inactive: -0.477%. `O=[As](O)(c1ccc(O)cc1)c1ccccc1O` was tested, and the activity change, negative = displacement was inactive: -5.65%. For `CC(C)NC(=O)NP(=O)(Oc1ccccc1)Oc1ccccc1`, the activity change, negative = displacement was inactive: -5.14%. For `CCN(CC)C(=S)SC(NC=O)C(Cl)(Cl)Cl` (configuration not stated), the activity change, negative = displacement was inactive: -16%. For `ClCCSc1nnc(-c2cccnc2)o1`, the activity change, negative = displacement was inactive: -2.95%. `CC(C)c1ccc(OP(=O)(Nc2ccccn2)Oc2ccccc2F)cc1` (configuration not stated) was tested, and the activity change, negative = displacement was inactive: -1.42%.
